The values below come from EP1289507B1, “USE OF AN ALDOSTERONE ANTAGONIST FOR THE TREATMENT OR PROPHYLAXIS OF ALDOSTERONE-MEDIATED PATHOGENIC EFFECTS” (priority 2000, dated 2001).

This assay deals with captopril-treated, saline-drinking SHRSP. Kind of assay: Protocol 2: Angiotensin II-induced renal damage in captopril-treated saline-drinking SHRSP. In kind it is in vivo, male SHRSP/A3N. The protocol: Animals. Studies were conducted in accordance with institutional guidelines using male SHRSP/A3N (generations F-75 to F-78), n = 37, from our local colony. These animals were bred from NIH stock, derived from the SHRSP/A3N substrain described originally by Okamoto and coworkers (Okamoto K et al. Circ. Res. 34 and 35 (suppl I):I-143-I-153.). All animals were housed in a room maintained on a 12:12-h light:dark-cycle and an ambient temperature of 22 ± 1°C in the Animal Care Facility at New York Medical College. Rats were weaned at 4 weeks of age and allowed free access to Purina Lab Chow 5001 (Ralston Purina, St. Louis, MO) and tap water until the initiation of experimental protocols.
SHRSP were placed on Stroke-Prone Rodent Diet (#39-288, Zeigler Bros Inc., Gardners, PA) and 1% NaCl drinking solution ad libitum starting at 8.3 weeks of age. […] Systolic blood pressure and heart rate were measured each week. […]
Assays and Analyses. Systolic blood pressure and heart rate of awake animals were measured by tail-cuff plethysmography using a Natsume KN-210 manometer and tachometer (Peninsula Laboratories Inc., Belmont, CA). […] Urinary protein concentration was determined by the sulfosalicylic acid turbidity method. Plasma aldosterone was measured by radioimmunoassay using ^125I-aldosterone as a tracer (Coat-a Count Aldosterone, Diagnostic Products Co., Los Angeles, CA). […]

SMILES strings stand for the structures.

`C[C@H](CS)C(=O)N1CCC[C@H]1C(=O)O` [Captopril, captopril, reference compound]: the “Preterminal systolic blood pressure” value (captopril plus vehicle, or captopril plus angiotensin II plus eplerenone) was determined as 224 ± 6 mm Hg. Further, the “proteinuria (urinary protein excretion)” value (end of study (2 weeks), captopril 50 mg/kg/d plus vehicle, or captopril plus angiotensin II 25 ng/min plus eplerenone 100 mg/kg/d) is 14 ± 1 mg/day.
